Each structure is given as a SMILES string. The entries are a selection whose mix differs from that of the whole data set. Inconclusive results are not listed. The source made the active and inactive calls. The call rests on the fitted dose curve; in most records, active means well fitted activation curve with a large enough effect; inconclusive means small, poorly fitted or top-dose-only effect; inactive means flat fitted curve, though single readings scatter.

This test can be described thus: qHTS assay to identify small molecule phospholipidosis (PLD) inducers. The following applies: HepG2 phospholipidosis, LipidTOX Red imaging, 24 h. The source says: National Center for Advancing Translational Sciences [NCATS]
Drug-induced Phospholipidosis (PLD) caused by cationic amphiphilic drugs is characterized by the appearance of unicentric or multicentric-lamellar bodies when viewed under electron microscope. Electron microscopy is the gold standard method for PLD detection, however, this method is time-consuming and labor intensive, making it unsuitable for evaluating a large set of compounds. A cell-based phospholipidosis assay has been developed using the LipidTox reagent in HepG2 cells and miniaturized into a 1536-well plate format. Drug induced phospholipid accumulation is stained with the LipidTox dyes in red color which then is determined using an automated high content screening system.
HepG2 cells are dispensed at 900 cells/3 uL/well into Collagen I-coated 1536-well black-wall/clear-bottom assay plates (Greiner Bio-One, Monroe, NC) using the Multidrop Combi 8 channel dispenser (Thermo Fisher, Waltham, MA, USA). The assay plates are incubated at 37 C for 4 hours to allow the cell attachment. 3 uL of 1:500 LipidTOX Red dye is added using the dispenser, and then 23 nL compounds are added via a Wako Pintool station (Wako Automation, San Diego, CA). Amiodarone, a known PLD inducer, was used as a positive control and DMSO was used as a negative control. The assay plates were then incubated at 37 C for 24 hours.
For fixations, 4 uL of 8% paraformaldehyde fixative solution containing 10 ug/mL Hoechst 33342 in Dulbecco's phosphate-buffered saline (DPBS) is added using a Kalypsys washer/dispenser (Kalypsys, San Diego, CA, USA). After incubation at room temperature for 30 min, the assay plates are washed once with DPBS using a Kalypsys washer/dispenser. The assay plates are then sealed and stored at 4 C before imaging. The fluorescence intensities (595 nm excitation, 615 nm emission for LipidTOX; 352 nm excitation, 461 nm emission for Hoechst 33342) are measured using an ImageXpress Micro Widefield High Content Screening System (Molecular Devices, Sunnyvale, CA, USA) with a 20x Plan Fluor objective. Images are acquired for one site in each well and analyzed with the MetaXpress software (Molecular Devices) using the Transfluor module. Several algorithmic outputs, such as pit count per well, pit count per cell, pit integrated intensity per well, and pit integrated intensity per cell, are used for quantitative image analysis for PLD.
A general note: Quantitative high-throughput screening tests each substance at several concentrations.
On the % scale 0 is the no-effect control and ±100 the full control effect.

With `CN(C)CCS`, where the note is “at 38.3 µM (top of the series)”, the PLD induction is inactive: 0.137%.
Same read-out and setting: under `O=[N+]([O-])[O-].[NH4+]` stands inactive: 0.0384%; under `O=[N+]([O-])OCC(CO[N+](=O)[O-])(CO[N+](=O)[O-])CO[N+](=O)[O-]`, inactive: -0.53%.
On to `O=[N+]([O-])c1cccc([N+](=O)[O-])c1`, for which the PLD induction was inactive: -1.15% (at 38.3 µM (top of the series)) and inactive: -3.53% (at 78.4 µM (top of the series)).
As for `CC(C)N(CCCl)C(C)C`, the PLD induction (at 38.3 µM (top of the series)) is inactive: -2.7%.
With `C/C1=C2N=C(/C=C3N=C(/C(C)=C4\[N-][C@@](C)([C@@H]5N=C1[C@](C)(CCC(=O)NC[C@@H](C)OP(=O)([O-])O[C@H]1[C@@H](O)[C@@H](n6cnc7cc(C)c(C)cc76)O[C@@H]1CO)[C@H]5CC(N)=O)[C@@](C)(CC(N)=O)[C@@H]4CCC(N)=O)[C@@](C)(CC(N)=O)[C@@H]\3CCC(N)=O)C(C)(C)[C@@H]/2CCC(N)=O.[C-]#N.[Co+3]`, the PLD induction (at 15.5 µM (top of the series)) is inactive: 4.59%.
Still for that read-out and setting: to `Cc1cccc([N+](=O)[O-])c1[N+](=O)[O-]` belongs inactive: -3.58%.
On to `OCCSCCO`, for which the PLD induction (at 38.3 µM (top of the series)) is inactive: 0.38%.
On the same count and under the same terms, to `CC(C)OP(=O)(F)OC(C)C` belongs inactive: -0.229%.

Source of the values: PubChem BioAssay AID1259344 (Tox21, 2017).
